# Source: ChEMBL document CHEMBL1126858, “Synthesis of (R,S)-trans-8-hydroxy-2-[N-n-propyl-N-(3'-iodo-2'-propenyl)amino]tetral in (trans-8-OH-PIPAT): a new 5-HT1A receptor ligand” (J Med Chem, 1993)
# Sequences of proteins named here, by UniProt entry; tags and fusion partners are left off.
# UniProt P19327, whole entry: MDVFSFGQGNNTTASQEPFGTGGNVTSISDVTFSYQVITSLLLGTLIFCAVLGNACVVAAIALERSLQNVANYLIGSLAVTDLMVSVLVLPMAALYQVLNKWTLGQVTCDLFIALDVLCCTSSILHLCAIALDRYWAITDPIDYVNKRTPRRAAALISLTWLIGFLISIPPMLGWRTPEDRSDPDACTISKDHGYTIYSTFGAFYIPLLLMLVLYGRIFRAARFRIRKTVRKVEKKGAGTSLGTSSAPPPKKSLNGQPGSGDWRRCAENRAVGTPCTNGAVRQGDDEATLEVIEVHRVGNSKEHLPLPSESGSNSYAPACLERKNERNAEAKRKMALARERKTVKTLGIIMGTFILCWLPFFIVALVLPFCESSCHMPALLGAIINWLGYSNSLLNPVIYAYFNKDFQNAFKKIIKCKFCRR
# Target: 5-hydroxytryptamine receptor 1A (Rattus norvegicus, UniProt P19327)
# Experiment: Binding affinity towards 5-hydroxytryptamine 1A receptor by the displacement of [125I]trans-8-OH-PIPAT in membrane homogenates of hippocampal tissue of rat brain
# Type: tissue-based, Hippocampus
smiles,measurement,value
O=C(c1ccc(F)cc1)C1CCN(CCn2c(=O)[nH]c3ccccc3c2=O)CC1 [KETANSERIN],Ki,1.82 µM
